The record followed here is ChEMBL document CHEMBL4602657, “Design and evaluation of Nrf2 activators with 1,3,4-oxa/thiadiazole core as neuro-protective agents against oxidative stress in PC-12 cells” (Bioorg Med Chem Lett, 2020).

What all share (type): cell-based
In assay [1] the target is T1, Nuclear factor erythroid 2-related factor 2 (Homo sapiens) (UniProt Q16236).
T1 sequence (whole entry): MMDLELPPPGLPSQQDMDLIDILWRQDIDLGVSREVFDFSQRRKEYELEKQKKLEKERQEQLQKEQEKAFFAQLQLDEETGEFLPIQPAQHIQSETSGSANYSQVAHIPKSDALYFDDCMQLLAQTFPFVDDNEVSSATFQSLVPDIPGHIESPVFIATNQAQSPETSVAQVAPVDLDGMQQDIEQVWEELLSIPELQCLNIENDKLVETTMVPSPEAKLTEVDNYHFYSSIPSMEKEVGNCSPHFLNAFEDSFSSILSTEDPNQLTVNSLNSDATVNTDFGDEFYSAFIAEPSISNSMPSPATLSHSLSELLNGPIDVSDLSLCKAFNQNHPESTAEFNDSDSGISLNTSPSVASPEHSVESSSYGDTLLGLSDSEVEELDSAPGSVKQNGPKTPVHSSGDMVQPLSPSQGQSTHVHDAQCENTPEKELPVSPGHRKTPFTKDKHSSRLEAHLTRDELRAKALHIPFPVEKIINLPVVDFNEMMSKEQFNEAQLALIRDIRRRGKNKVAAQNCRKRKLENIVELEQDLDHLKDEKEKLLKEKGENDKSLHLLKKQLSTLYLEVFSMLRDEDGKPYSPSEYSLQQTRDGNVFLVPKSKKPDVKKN
Put plainly: Activation of Nrf2 in human HepG2-ARE-C8 cells assessed as fold change at 0.1 uM measured after 12 hrs by luciferase reporter gene assay relative to control. Background: Reporter assays use an easily measured gene product as a stand-in for the process of interest.

In assay [2] the target is T1, Nuclear factor erythroid 2-related factor 2 (Homo sapiens). Put plainly: Activation of Nrf2 in human HepG2-ARE-C8 cells assessed as fold change at 40 uM measured after 12 hrs by luciferase reporter gene assay relative to control.
For assay [3] the target is unchanged. Put plainly: Activation of Nrf2 in human HepG2-ARE-C8 cells assessed as fold change at 80 uM measured after 12 hrs by luciferase reporter gene assay relative to control.
The target is the same in assay [4]. Put plainly: Activation of Nrf2 in human HepG2-ARE-C8 cells assessed as fold change at 10 uM measured after 12 hrs by luciferase reporter gene assay relative to control.
Assay [5] shares this target. Put plainly: Activation of Nrf2 in human HepG2-ARE-C8 cells assessed as fold change at 1 uM measured after 12 hrs by luciferase reporter gene assay relative to control.
Assay [6] shares this target. Put plainly: Activation of Nrf2 in human HepG2-ARE-C8 cells assessed as fold change at 20 uM measured after 12 hrs by luciferase reporter gene assay relative to control.

Structures are written as SMILES.

For the compound `Fc1ccc(-c2nc(-c3ccc4nc[nH]c4c3)no2)cc1`, the fold change (FC) was 2.49 in assay [1]; 40.8 in assay [2]; 44.4 in assay [3]; 14.2 in assay [4]; 10.2 in assay [5]; 27.3 in assay [6].
